Patent US5560935A, “Physiologically active substances extracted from activated tissues” (Nippon Zoki Pharmaceutical Co., Ltd., priority 1993, dated 1996)

Test system: plasma kallikrein
Experiment: Inhibition of the production of plasma kallikrein (kaolin-activated plasma, synthetic substrate)
Type: biochemical
Conditions: normal human plasma, kaolin activation, substrate D-Pro-Phe-Arg-p-nitroaniline
Method: The inhibitory action of the physiologically-active substance against the production of plasma kallikrein was measured according to a method described in Kiso to Rinsho, vol. 20, no. 17, pages 399-405 (1986).
Thus, a suspension of kaolin was added to normal human plasma diluted with a physiologically saline solution. A lima bean trypsin inhibitor was added thereto after a certain period to stop the kallikrein procluction reaction. Then the resulting kallikrein was determined by using a synthetic substrate (D-Pro-Phe-Arg-p-nitroaniline). The test substance was placed in the above system whereby the inhibitory action of the test substance against the production of kallikrein was determined.
In Table 1 the potency of the activity is given in terms of the concentration (IC50) at which the production of the plasma kallikrein was inhibited to an extent of 50%: […]

In the case of `COc1ccc2c(c1)c(CC(=O)O)c(C)n2C(=O)c1ccc(Cl)cc1` [Indomethacin], the “IC50, concentration at which the production of the plasma kallikrein was inhibited to an extent of 50%” value is reported as 370 micrograms/ml.
